Laboratory results: patent publication US20070066561A1, “Drug delivery and targeting with vitamin B12 conjugates” (New York University, priority 2002, published 2007)

Assays:
Assay in all cases: Cytotoxicity against human cell lines grown in culture, MTT assay
Assay type in all cases: cell-based
Conditions in all cases: 72 hr continuous incubation, 5% human serum, relative cell growth by MTT, means of duplicate experiments
[1] = tested on: HL60 Promyelocytic leukemia
Text: (§1) The data below are means of duplicate experiments with similar results.

K562 Erythroleukemia = tested on: K562 Erythroleukemia
Text: as §1

KARPAS-291 Lymphoma = tested on: KARPAS-291 Lymphoma
Text: as §1

In the case of “B12-P-Hippuric acid-4,7,10-trioxa-1,13-tridecanediamine e-cyanocobalamin monocarboxylic acid conjugate [B12 P-Hippuric acid]”, the “Cytotoxicity, HL60 Promyelocytic leukemia” value [1] was 245 ng/mL, the “Cytotoxicity, K562 Erythroleukemia” value (K562 Erythroleukemia) was 281 ng/mL and the “Cytotoxicity, KARPAS-291 Lymphoma” value (KARPAS-291 Lymphoma) was 270 ng/mL.
